System: alcohol dependent individuals
Assay: GMDR epistatic analysis of multigene SNP combinations (SERT, 5HT-3A, 5HT-3B) for association with ondansetron treatment outcome
Parameters: species or system human
[1] = 5-HTTLPR + rs1042173: all other genotype combinations
[2] = rs3758987 + 5-HTTLPR + rs1042173: TT/CT + LL + TT
[3] = rs3758987 + 5-HTTLPR + rs1042173: all other genotype combinations
[4] = rs3758987 + 5HTTLPR: TT/CT + LL
[5] = rs3758987 + 5HTTLPR: all other genotype combinations
[6] = rs3758987 + rs1042173: TT/CT + TT
[7] = rs3758987 + rs1042173: all other genotype combinations
[8] = rs3758987 + rs2276307 + 5-HTTLPR + rs1042173: TT/CT + AA + LL + TT
[9] = rs3758987 + rs2276307 + 5-HTTLPR + rs1042173: all other genotype combinations
[10] = rs3758987 + rs2276307 + 5-HTTLPR: TT/CT + AA + LL
[11] = rs3758987 + rs2276307 + 5-HTTLPR: all other genotype combinations

For `Cc1nccn1CC1CCc2c(c3ccccc3n2C)C1=O` (stereo not drawn) [ondansetron, 9-methyl-3-[(2-methyl-1H-imidazol-1-yl)methyl]-1,2,3,9-tetrahydrocarbazol-4-one], the “OND-non-responders N (More than 3 standard drinks improvement from the baseline in the last 2 months)” value (shortened to “OND-non-responders N”) (5-HTTLPR + rs1042173: LL + TT) was 4, the “OND-responders N (More than 3 standard drinks improvement from the baseline in the last 2 months)” value (from here on “OND-responders N”) (5-HTTLPR + rs1042173: LL + TT) was 16 and the “OND-non-responders N” value [1] was 64. For the same compound, the “OND-responders N” value [1] was 41, the “OND-non-responders N” value [2] was 4 and the “OND-responders N” value [2] was 15. For the same compound, the “OND-non-responders N” value [3] was 64, the “OND-responders N” value [3] was 42 and the “OND-non-responders N” value [4] was 16. The “OND-responders N” value [4] was 23, the “OND-non-responders N” value [5] was 52 and the “OND-responders N” value [5] was 34. The “OND-non-responders N” value [6] was 14, the “OND-responders N” value [6] was 22 and the “OND-non-responders N” value [7] was 54. The “OND-responders N” value [7] was 35, the “OND-non-responders N” value [8] was 2 and the “OND-responders N” value [8] was 13. For the same compound, the “OND-non-responders N” value [9] was 66, the “OND-responders N” value [9] was 44 and the “OND-non-responders N” value [10] was 12. For the same compound, the “OND-responders N” value [10] was 20, the “OND-non-responders N” value [11] was 56 and the “OND-responders N” value [11] was 37.

Reference: patent US12226401B2, “Molecular genetic approach to treatment and diagnosis of alcohol and drug dependence” (priority 2010, dated 2025)
